This test addresses His-BIR2 (124-240/C202A/C213G) (Homo sapiens (Human), UniProt P98170, C202A/C213G). The conditions noted are these: read-out: XIAP-BIR2 AlphaScreen IC50, Biotinylated SMAC peptide. On the technique in general: Bead proximity is the source of the signal in Alpha formats.

Each structure is given as a SMILES string.

For 9 compounds, IC50 results are on record in patent US9783573B2, “IAP antagonists” (BRISTOL-MYERS SQUIBB COMPANY, priority 2012, dated 2017).

A word on the IC50: it is the concentration at which inhibition is half-maximal. For `CN[C@@H](C)C(=O)N[C@H](C(=O)N1Cc2cc(NCc3ccc(C(=O)N[C@H]4C[C@@H](C(=O)N[C@@H]5CCCc6ccccc65)N(C(=O)[C@@H](NC(=O)[C@H](C)NC)C(C)(C)C)C4)cc3)ccc2C[C@H]1C(=O)N[C@@H]1CCCc2ccccc21)C(C)(C)C` [Example 31, (S)-2-((S)-3,3-Dimethyl-2-((S)-2-(methylamino)propanamido)butanoyl)-7-((4-(((3S,5S)-1-((S)-3,3-dimethyl-2-((S)-2-(methylamino)propanamido)butanoyl)-5-(((R)-1,2,3,4-tetrahydronaphthalen-1-yl)carbamoyl)pyrrolidin-3-yl)carbamoyl)benzyl)amino)-N—((R)-1,2,3,4-tetrahydronaphthalen-1-yl)-1,2,3,4-tetrahydroisoquinoline-3-carboxamide], the IC50 turned out to be 520 nM.

For the compound `CN[C@@H](C)C(=O)N[C@H](C(=O)N1Cc2cc(N(Cc3ccc(C(=O)N[C@H]4C[C@@H](C(=O)N[C@@H]5CCCc6ccccc65)N(C(=O)[C@@H](NC(=O)[C@H](C)NC)C(C)(C)C)C4)cc3)C(C)=O)ccc2C[C@H]1C(=O)N[C@@H]1CCCc2ccccc21)C(C)(C)C` [Example 32, (S)-2-((S)-3,3-Dimethyl-2-((S)-2-(methylamino)propanamido)butanoyl)-7-(N-(4-(((3S,5S)-1-((S)-3,3-dimethyl-2-((S)-2-(methylamino)propanamido)butanoyl)-5-(((R)-1,2,3,4-tetrahydronaphthalen-1-yl)carbamoyl)pyrrolidin-3-yl)carbamoyl)benzyl)acetamido)-N—((R)-1,2,3,4-tetrahydronaphthalen-1-yl)-1,2,3,4-tetrahydroisoquinoline-3-carboxamide], the IC50 worked out at 110 nM.

Consider `CN[C@@H](C)C(=O)N[C@H](C(=O)N1Cc2cc(NCc3ccc(C(=O)N[C@H]4C[C@@H](C(=O)N[C@@H]5CCCc6ccccc65)N(C(=O)[C@@H](NC(=O)[C@H](C)NC)C(C)(C)C)C4)cc3Cl)ccc2C[C@H]1C(=O)N[C@@H]1CCCc2ccccc21)C(C)(C)C` [Example 33, (S)-7-((2-Chloro-4-(((3S,5S)-1-((S)-3,3-dimethyl-2-((S)-2-(methylamino)propanamido)butanoyl)-5-(((R)-1,2,3,4-tetrahydronaphthalen-1-yl)carbamoyl)pyrrolidin-3-yl)carbamoyl)benzyl)amino)-2-((S)-3,3-dimethyl-2-((S)-2-(methylamino)propanamido)butanoyl)-N—((R)-1,2,3,4-tetrahydronaphthalen-1-yl)-1,2,3,4-tetrahydroisoquinoline-3-carboxamide], for which the IC50 was 790 nM.

Regarding `CCN[C@@H](C)C(=O)N[C@H](C(=O)N1Cc2cc(NC(=O)c3ccc(C(=O)N[C@H]4C[C@@H](C(=O)N[C@@H]5CCCc6ccccc65)N(C(=O)[C@@H](NC(=O)[C@H](C)NC)C(C)(C)C)C4)cc3)ccc2C[C@H]1C(=O)N[C@@H]1CCCc2ccccc21)C(C)(C)C` [Example 34, N^1-((3S,5S)-1-((S)-3,3-dimethyl-2-((S)-2-(methylamino)propanamido)butanoyl)-5-(((R)-1,2,3,4-tetrahydronaphthalen-1-yl)carbamoyl)pyrrolidin-3-yl)-N^4-((S)-2-((S)-2-((S)-2-(ethylamino)propanamido)-3,3-dimethylbutanoyl)-3-(((R)-1,2,3,4-tetrahydronaphthalen-1-yl)carbamoyl)-1,2,3,4-tetrahydroisoquinolin-7-yl)terephthalamide], the IC50 is 410 nM.

On to `CN[C@@H](C)C(=O)N[C@H](C(=O)N1C[C@@H](NC(=O)c2ccc(C(=O)Nc3ccc4c(c3)CN(C(=O)[C@@H](NC(=O)[C@@H](NC)C(C)C)C(C)(C)C)[C@H](C(=O)N[C@@H]3CCCc5ccccc53)C4)cc2)C[C@H]1C(=O)N[C@@H]1CCCc2ccccc21)C(C)(C)C` [Example 35], for which the IC50 turned out to be 1400 nM.

For the compound `CN[C@@H](C)C(=O)N[C@H](C(=O)[C@@H]1C[C@H](NC(=O)[C@@H](CCC(F)(F)F)[C@@H](CCC(F)(F)F)C(=O)Nc2ccc3c(c2)CN(C(=O)[C@@H](NC(=O)[C@H](C)NC)C(C)(C)C)[C@H](C(=O)N[C@@H]2CCCc4ccccc42)C3)CN1C(=O)N[C@@H]1CCCc2ccccc21)C(C)(C)C` [Example 37, (2S,3R)-N^1-((3S,5S)-5-((S)-3,3-dimethyl-2-((S)-2-(methylamino)propanamido)butanoyl)-1-(((R)-1,2,3,4-tetrahydronaphthalen-1-yl)carbamoyl)pyrrolidin-3-yl)-N^4-((S)-2-((S)-3,3-dimethyl-2-((S)-2-(methylamino)propanamido)butanoyl)-3-(((R)-1,2,3,4-tetrahydronaphthalen-1-yl)carbamoyl)-1,2,3,4-tetrahydroisoquinolin-7-yl)-2,3-bis(3,3,3-trifluoropropyl) succinamide], the IC50 came out at 290 nM.

With `CCN[C@@H](C)C(=O)N[C@H](C(=O)N[C@H](C(=O)N1Cc2cc(OCc3ccc(C(=O)N[C@H]4C[C@@H](C(=O)N[C@@H]5CCCc6ccccc65)N(C(=O)[C@@H](NC(=O)[C@H](C)NC)C(C)(C)C)C4)cc3)ccc2C[C@H]1C(=O)N[C@@H]1CCCc2ccccc21)C(C)(C)C)C(C)(C)C` [Example 40, (S)-7-((4-(((3S,5S)-1-((S)-3,3-Dimethyl-2-((S)-2-(methylamino)propanamido)butanoyl)-5-(((R)-1,2,3,4-tetrahydronaphthalen-1-yl)carbamoyl)pyrrolidin-3-yl)carbamoyl)benzyl)oxy)-2-((S)-2-((S)-2-((S)-2-(ethylamino)propanamido)-3,3-dimethylbutanamido)-3,3-dimethylbutanoyl)-N-((R)-1,2,3,4-tetrahydronaphthalen-1-yl)-1,2,3,4-tetrahydroisoquinoline-3-carboxamide], the IC50 stood at 2100 nM.

With `CN[C@@H](C)C(=O)N[C@H](C(=O)N1Cc2ccc(OCc3ccc(C(=O)N[C@H]4C[C@@H](C(=O)N[C@@H]5CCCc6ccccc65)N(C(=O)[C@@H](NC(=O)[C@H](C)NC)C(C)(C)C)C4)cc3)cc2C[C@H]1C(=O)N[C@@H]1CCCc2ccccc21)C(C)(C)C` [Example 41, (S)-2-((S)-3,3-Dimethyl-2-((S)-2-(methylamino)propanamido)butanoyl)-6-((4-(((3S,5S)-1-((S)-3,3-dimethyl-2-((S)-2-(methylamino)propanamido)butanoyl)-5-(((R)-1,2,3,4-tetrahydronaphthalen-1-yl)carbamoyl)pyrrolidin-3-yl)carbamoyl)benzyl)oxy)-N-((R)-1,2,3,4-tetrahydronaphthalen-1-yl)-1,2,3,4-tetrahydroisoquinoline-3-carboxamide], the IC50 amounted to 290 nM.

As to `CN[C@@H](C)C(=O)N[C@H](C(=O)N1Cc2ccc(OCc3ccc(C(=O)N[C@H]4C[C@@H](C(=O)NC5CCCc6ccccc65)N(C(=O)[C@@H](NC(=O)[C@H](C)NC)C(C)(C)C)C4)cc3)cc2C[C@@H]1C(=O)NC1CCCc2ccccc21)C(C)(C)C` (stereo partly drawn) [Example 42, (R)-2-((S)-3,3-Dimethyl-2-((S)-2-(methylamino)propanamido)butanoyl)-6-((4-(((3S,5S)-1-((S)-3,3-dimethyl-2-((5)-2-(methylamino)propanamido)butanoyl)-5-(((R)-1,2,3,4-tetrahydronaphthalen-1-yl)carbamoyl)pyrrolidin-3-yl)carbamoyl)benzyl)oxy)-N-((R)-1,2,3,4-tetrahydronaphthalen-1-yl)-1,2,3,4-tetrahydroisoquinoline-3-carboxamide], the IC50 is 1300 nM.
